Literature values, collected in patent US20190144909A1, “METHODS OF MODULATING BCKDH” (NESTEC S.A., priority 2016, published 2019).
Some compounds may have been tested in ways that are not shown here.

Key:
[1] = system: branched-chain alpha-keto acid dehydrogenase E1 A subunit (BCKDHA); details: Table 1b, from Comparative Toxicogenomics Database
[2] = system: branched-chain alpha-keto acid dehydrogenase E1 B subunit (BCKDHB); details: Table 1a, from Comparative Toxicogenomics Database

Cc1ccc([N+](=O)[O-])cc1[N+](=O)[O-]
Interaction Actions [1]: affects expression
Interaction Actions [2]: affects expression
